These results are taken from patent publication US9951335B2, “Compositions and methods for treating otitis media and other conditions with inhibitors of CYLD” (Georgia State University Research Foundation, Inc., priority 2012, dated 2018).

This assay concerns K63-polyubiquitinated Akt. The experiment in a line: In vitro cell-free deubiquitination of K63-polyubiquitinated recombinant Akt. It counts as biochemical. The conditions noted are these: cell-free system; dose-dependent manner. The source says:
FIG. 6 illustrates CYLD deubiquitinates K63-polyubiquitinated Akt to reduce Smad3. (a) Lysates from A549 cells co-transfected with HA-Ub WT, Flag-Akt WT, Flag-WT-CYLD or Flag-H/N-CYLD were immunoprecipitated with anti-Akt antibody and analysed by immunoblotting with the indicated antibodies. (b) Cells were co-transfected with Flag-Akt, HA-CYLD, or siCYLD and treated with S. pneumoniae. Akt was pulled down with Flag probe and immunoblotted against Ubiquitin (Ub), Akt, and CYLD. (c) Cells transfected with control vector or Flag-WT-CYLD were treated with S. pneumoniae, and cell lysates were immunoprecipitated with anti-Akt1 antibody and analysed by immunoblotting with the indicated antibodies. […] (e) Lysates from A549 cells co-transfected with Flag-Akt WT, Flag-WT-CYLD, HA-Ub WT, HA-Ub K63, or HA-Ub K48 were immunoprecipitated with anti-Akt antibody, and analysed by immunoblotting with the indicated antibodies. (f) Recombinant Akt1 (His-rAkt1) was incubated with recombinant K63 ubiquitin (His-rUb-K63) with or without recombinant CYLD (GST-rCYLD) in in vitro ubiquitination assay buffer (BostonBiochem) and analysed by immunoblotting with the indicated antibodies. […] (h) Lysates from cells co-transfected with HA-Ub K63, Flag-Akt WT, or Flag-Akt KR mutants (K8R, K14R, K20R or K30R) were immunoprecipitated with anti-Flag probe and analysed by immunoblotting with the indicated antibodies. […]

B1: GST-rCYLD: recombinant CYLD protein (protein)
chain: MSSGLWSQEKVTSPYWEERIFYLLLQECSVTDKQTQKLLKVPKGSIGQYIQDRSVGHSRIPSAKGKKNQIGLKILEQPHAVLFVDEKDVVEINEKFTELLLAITNCEERFSLFKNRNRLSKGLQIDVGCPVKVQLRSGEEKFPGVVRFRGPLLAERTVSGIFFGVELLEEGRGQGFTDGVYQGKQLFQCDEDCGVFVALDKLELIEDDDTALESDYAGPGDTMQVELPPLEINSRVSLKVGETIESGTVIFCDVLPGKESLGYFVGVDMDNPIGNWDGRFDGVQLCSFACVESTILLHINDIIPALSESVTQERRPPKLAFMSRGVGDKGSSSHNKPKATGSTSDPGNRNRSELFYTLNGSSVDSQPQSKSKNTWYIDEVAEDPAKSLTEISTDFDRSSPPLQPPPVNSLTTENRFHSLPFSLTKMPNTNGSIGHSPLSLSAQSVMEELNTAPVQESPPLAMPPGNSHGLEVGSLAEVKENPPFYGVIRWIGQPPGLNEVLAGLELEDECAGCTDGTFRGTRYFTCALKKALFVKLKSCRPDSRFASLQPVSNQIERCNSLAFGGYLSEVVEENTPPKMEKEGLEIMIGKKKGIQGHYNSCYLDSTLFCLFAFSSVLDTVLLRPKEKNDVEYYSETQELLRTEIVNPLRIYGYVCATKIMKLRKILEKVEAASGFTSEEKDPEEFLNILFHHILRVEPLLKIRSAGQKVQDCYFYQIFMEKNEKVGVPTIQQLLEWSFINSNLKFAEAPSCLIIQMPRFGKDFKLFKKIFPSLELNITDLLEDTPRQCRICGGLAMYECRECYDDPDISAGKIKQFCKTCNTQVHLHPKRLNHKYNPVSLPKDLPDWDWRHGCIPCQNMELFAVLCIETSHYVAFVKYGKDDSAWLFFDSMADRDGGQNGFNIPQVTPCPEVGEYLKMSLEDLHSLDSRRIQGCARRLLCDAYMCMYQSPTMSLYK
modifications: left off: a dimerising Fc or GST
notes: recombinant CYLD protein
With B1, the “K63-linked polyubiquitination of Akt (His-rAkt) in vitro” value was “directly deubiquitinates”.
